Earlier results as cited in patent US20110130466A1, “USE OF RASAGILINE FOR THE TREATMENT OF PROGRESSIVE SUPRANUCLEAR PALSY” (priority 2009, published 2011).

The chains behind the UniProt entries cited, without tags or fusion partners.
UniProt P27338, whole entry: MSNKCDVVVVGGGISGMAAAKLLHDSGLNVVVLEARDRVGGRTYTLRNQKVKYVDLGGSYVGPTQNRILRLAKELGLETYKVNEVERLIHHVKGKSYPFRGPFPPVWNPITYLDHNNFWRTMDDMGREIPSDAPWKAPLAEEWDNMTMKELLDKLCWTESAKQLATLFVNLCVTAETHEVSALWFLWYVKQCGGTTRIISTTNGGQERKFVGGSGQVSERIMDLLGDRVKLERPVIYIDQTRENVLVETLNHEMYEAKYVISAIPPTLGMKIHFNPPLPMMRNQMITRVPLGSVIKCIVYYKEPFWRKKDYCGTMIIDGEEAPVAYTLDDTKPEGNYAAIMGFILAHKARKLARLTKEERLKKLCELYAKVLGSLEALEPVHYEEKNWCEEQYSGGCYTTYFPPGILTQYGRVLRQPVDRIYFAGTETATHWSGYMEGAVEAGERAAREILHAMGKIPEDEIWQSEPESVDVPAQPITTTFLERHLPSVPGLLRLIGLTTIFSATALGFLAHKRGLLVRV

Target: monoamine oxidase (MAO) B (Homo sapiens, UniProt P27338)
Conditions: Finberg et al. 2002; cited from earlier work

C#CCN[C@@H]1CCc2ccccc21 [rasagiline, R(+)-N-propargyl-1-aminoindan]
MAO B inhibitor activity: potent
